The entries are a selection whose mix differs from that of the whole data set. Active and inactive are the calls of the source. Cut-off read from the data, not from the text of the source: active = inhibition above about 22%; inactive = the rest.
Experiment: HEK cell viability loss – luminescence, cytotoxicity control for IDE inhibitor project (AID 449730);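 note: 0% = vehicle wells and 100% = reference cytotoxic drug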
Settings: HEK293 cytotoxicity, ATP luminescence; at 5.59 µM; active compounds read high

Row | SMILES | inhibition
1 | O=c1c2ccccc2[se]n1-c1ccccc1 | active: 45.4%

Source: PubChem BioAssay AID449730 (The Scripps Research Institute Molecular Screening Center, 2010)
